# Literature values in patent publication US7604939B2, “Methods of identifying active BRM expression-promoting HDAC inhibitors” (The Regents of the University of Michigan, priority 2005, dated 2009).
# Chains of the proteins cited; added tags and fusions are not shown.
# UniProt Q13547, whole entry: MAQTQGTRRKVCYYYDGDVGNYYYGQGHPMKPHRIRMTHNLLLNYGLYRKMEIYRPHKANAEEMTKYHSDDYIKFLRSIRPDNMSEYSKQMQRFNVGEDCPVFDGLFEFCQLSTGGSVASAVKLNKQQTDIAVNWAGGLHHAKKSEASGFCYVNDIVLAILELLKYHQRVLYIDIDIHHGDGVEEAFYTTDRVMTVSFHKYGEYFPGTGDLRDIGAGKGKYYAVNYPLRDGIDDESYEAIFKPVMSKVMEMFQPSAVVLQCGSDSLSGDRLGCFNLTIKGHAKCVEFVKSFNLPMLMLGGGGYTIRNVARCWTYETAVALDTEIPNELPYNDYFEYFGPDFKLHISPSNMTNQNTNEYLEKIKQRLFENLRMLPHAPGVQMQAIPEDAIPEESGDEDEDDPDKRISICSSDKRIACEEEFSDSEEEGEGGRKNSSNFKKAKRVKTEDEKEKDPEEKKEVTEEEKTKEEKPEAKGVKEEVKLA
# How the values were obtained:
# [1] = target: HDAC1 (Homo sapiens, UniProt Q13547); settings: Class 1 HDAC; cited from earlier work
# [2] = target: T1, HDAC8 (Homo sapiens, UniProt Q9BY41); settings: Class 1 HDAC; cited from earlier work
# T1 sequence (Q9BY41 1-377): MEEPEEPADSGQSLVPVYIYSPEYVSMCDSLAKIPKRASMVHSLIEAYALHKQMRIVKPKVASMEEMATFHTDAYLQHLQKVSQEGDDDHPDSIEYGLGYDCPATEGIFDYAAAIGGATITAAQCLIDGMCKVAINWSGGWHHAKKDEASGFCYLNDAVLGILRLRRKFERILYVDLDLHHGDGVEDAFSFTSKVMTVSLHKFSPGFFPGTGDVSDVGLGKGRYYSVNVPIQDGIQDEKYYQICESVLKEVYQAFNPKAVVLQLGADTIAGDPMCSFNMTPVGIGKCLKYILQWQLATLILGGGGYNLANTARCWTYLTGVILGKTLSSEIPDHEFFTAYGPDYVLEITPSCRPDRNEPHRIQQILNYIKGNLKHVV
compound,measurement,setting,value
Nc1ccccc1NC(=O)c1ccc(CNC(=O)OCc2cccnc2)cc1 [MS-275],Sensitivity of HDAC1 to the inhibitor,[1],Yes
same,Sensitivity of HDAC8 to the inhibitor,[2],Yes
